Reference: patent publication US11420944B2, “Voltage-dependent t-type calcium channel blocker” (Nippon Chemiphar Co., Ltd., priority 2016, dated 2022)

Protein sequences, listed by entry. Tags and fused reporters are not part of them.
UniProt O95180, whole entry: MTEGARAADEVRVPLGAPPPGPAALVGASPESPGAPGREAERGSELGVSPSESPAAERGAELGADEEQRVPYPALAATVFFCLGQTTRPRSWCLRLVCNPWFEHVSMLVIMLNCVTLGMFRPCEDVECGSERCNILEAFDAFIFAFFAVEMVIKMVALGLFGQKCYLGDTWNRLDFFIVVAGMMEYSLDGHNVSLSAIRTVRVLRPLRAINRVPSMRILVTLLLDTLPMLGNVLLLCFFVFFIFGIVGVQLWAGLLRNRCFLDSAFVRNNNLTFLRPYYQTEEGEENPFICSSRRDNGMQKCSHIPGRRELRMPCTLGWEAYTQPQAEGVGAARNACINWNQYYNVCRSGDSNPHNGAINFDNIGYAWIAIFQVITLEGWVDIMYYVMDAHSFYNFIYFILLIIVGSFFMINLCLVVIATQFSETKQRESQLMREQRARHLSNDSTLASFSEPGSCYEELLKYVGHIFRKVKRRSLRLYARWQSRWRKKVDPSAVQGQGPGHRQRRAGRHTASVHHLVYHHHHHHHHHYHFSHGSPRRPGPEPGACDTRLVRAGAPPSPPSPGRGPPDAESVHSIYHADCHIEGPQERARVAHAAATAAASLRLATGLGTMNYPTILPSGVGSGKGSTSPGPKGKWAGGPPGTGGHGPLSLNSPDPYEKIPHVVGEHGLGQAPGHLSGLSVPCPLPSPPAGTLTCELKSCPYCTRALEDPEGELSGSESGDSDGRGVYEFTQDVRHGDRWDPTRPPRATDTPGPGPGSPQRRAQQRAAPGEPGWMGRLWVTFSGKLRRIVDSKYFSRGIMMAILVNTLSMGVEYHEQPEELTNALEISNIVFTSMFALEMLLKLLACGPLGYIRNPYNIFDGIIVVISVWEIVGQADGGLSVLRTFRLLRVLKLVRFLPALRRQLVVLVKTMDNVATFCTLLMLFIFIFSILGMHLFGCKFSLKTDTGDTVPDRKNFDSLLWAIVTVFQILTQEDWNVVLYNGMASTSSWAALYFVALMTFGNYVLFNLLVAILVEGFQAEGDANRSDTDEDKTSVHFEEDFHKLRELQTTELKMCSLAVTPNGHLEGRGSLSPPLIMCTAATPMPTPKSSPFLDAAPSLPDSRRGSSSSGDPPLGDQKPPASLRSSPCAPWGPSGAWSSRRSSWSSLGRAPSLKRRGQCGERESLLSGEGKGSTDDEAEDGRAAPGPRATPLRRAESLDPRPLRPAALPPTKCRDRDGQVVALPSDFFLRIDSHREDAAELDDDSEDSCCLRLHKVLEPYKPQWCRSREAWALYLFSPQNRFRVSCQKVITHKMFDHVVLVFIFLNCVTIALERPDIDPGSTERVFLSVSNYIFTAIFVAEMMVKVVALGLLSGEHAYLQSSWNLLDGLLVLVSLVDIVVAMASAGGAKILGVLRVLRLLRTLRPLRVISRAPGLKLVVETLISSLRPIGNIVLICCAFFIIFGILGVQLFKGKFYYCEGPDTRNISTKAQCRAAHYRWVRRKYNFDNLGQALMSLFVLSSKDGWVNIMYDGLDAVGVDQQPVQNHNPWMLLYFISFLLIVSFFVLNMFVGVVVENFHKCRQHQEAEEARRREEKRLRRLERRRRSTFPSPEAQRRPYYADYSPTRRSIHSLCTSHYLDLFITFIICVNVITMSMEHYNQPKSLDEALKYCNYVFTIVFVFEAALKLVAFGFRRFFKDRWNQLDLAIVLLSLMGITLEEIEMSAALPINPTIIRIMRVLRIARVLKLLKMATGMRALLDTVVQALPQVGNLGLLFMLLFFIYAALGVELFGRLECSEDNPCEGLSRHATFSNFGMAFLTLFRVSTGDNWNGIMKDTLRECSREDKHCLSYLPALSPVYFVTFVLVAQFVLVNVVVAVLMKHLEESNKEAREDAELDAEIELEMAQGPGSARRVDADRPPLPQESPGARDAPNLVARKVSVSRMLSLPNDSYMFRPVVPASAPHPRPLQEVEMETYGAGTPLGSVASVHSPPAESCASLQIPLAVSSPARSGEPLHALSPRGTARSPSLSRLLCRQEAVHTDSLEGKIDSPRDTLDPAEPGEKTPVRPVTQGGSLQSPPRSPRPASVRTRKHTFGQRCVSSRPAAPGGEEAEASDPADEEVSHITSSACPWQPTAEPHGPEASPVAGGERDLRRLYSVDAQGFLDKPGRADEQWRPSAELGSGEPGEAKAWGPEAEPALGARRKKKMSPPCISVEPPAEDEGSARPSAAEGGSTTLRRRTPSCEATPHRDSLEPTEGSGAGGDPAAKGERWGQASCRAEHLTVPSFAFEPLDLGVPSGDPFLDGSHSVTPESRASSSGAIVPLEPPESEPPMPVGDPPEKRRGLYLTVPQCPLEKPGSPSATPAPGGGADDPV

Biological target: human Cav3.2 channels (Homo sapiens, UniProt O95180)
Assay: Intracellular calcium concentration measurement (Fluo-4 AM) in stable cells expressing human Cav3.2 channels, buffer A / buffer B
Conditions: read-out: Inhibitory action of buffer A (inactivated state), Tables 2 to 6, equilibrium potential of potassium −92 mV
Text: Construction of Stable Cells Expressing Human Cav3.2 Channels
(1) A sequence produced by incorporating HindIII site and kozak sequence (GCCACC) into the 5′-terminal side of human Cav3.2 channel ORF (Open Reading Frame) gene and incorporating Kpnl site into the 3′-terminal side was incorporated into pcDNA3.1(+) (Thermo-Fisher Scientific, Inc., #V790-20), and the plasmid was transfected into HEK293 cells (ATCC No. CRL-1573) according to the protocol of FuGENE (registered trademark) HD Transfection Reagent (PROMEGA #E2311).
(2) Method for Measuring Intracellular Calcium Concentration […]
Stable cell line expressing human Cav3.2 channels, which had been produced in (1), was seeded in a 96-well plate using DMEM medium including 10% FBS, and the cells were cultured for 48 hours under the conditions of 37° C. and 5% CO2. Subsequently, the medium was removed, and various wells that had been washed with a base buffer were treated with 80 μL of a fluorescent dye solution containing a mixed liquid of 22 μg of calcium fluorescence indicator Fluo-4 AM (Dojindo Laboratories Co., Ltd., #F311), 20 μL of DMSO, […] of 10% Pluronic F-127 (Thermo-Fisher Scientific, Inc., #P6866), and 4 mL of a base buffer. […] The cells were left to stand for another 15 minutes at room temperature in the dark, and the cells were analyzed using the following method using a microplate reader, EnVision (PerkinElmer, Inc.). […]

IC50: 1 to 10 µM
Structure (SMILES): C[C@@H](NC(=O)C1CC1c1nc2ccccc2o1)c1cnc(OCC(F)(F)F)s1 (single isomer, unassigned)
